Laboratory results taken from patent publication US7671027B2, “Use of GnRH agonists to support the luteal phase during infertility treatment” (PregLem S.A., priority 2002, dated 2010).

Key:
[1] = system: patients suffering from unexplained infertility, mild to moderate endometrioisis or partner sperm alteration; test: Dose finding study: luteal phase duration and pregnancy outcome after ovarian stimulation and IUI; format: in vivo
Excerpt: (§1) Patients suffering from unexplained infertility, or from infertility resulting from mild to moderate endometrioisis, or an infertility resulting from a mild or moderate alteration of their partner sperm, and whom have not conceived despite regular sexual intercourses during a period of one or two years, usually undergo medical assistance. The most often used treatment is ovarian stimulation coupled to an IUI (Hughes G. H. 1997, The effectiveness of ovulation induction and intra-uterine insemination in the treatment of persistent infertility: a meta-analysis. Hum Reprod. 12: 1865-1872).
(§2) A prospective, randomised, parallel groups dose finding study was conducted in this patient population. After obtaining written informed consent, patient eligibility was confirmed and on day 1 to 5 of their next menstruation, the patient took orally for 5 days, 25 mg/day of exemestane, an aromatase inhibitor.
(§3) The ovarian response to treatment was followed on a regular basis using transvaginal ultrasound and by measuring serum oestradiol levels, Typically, a first assessment was performed on day 6 of the stimulation. The number and the size of each follicle was recorded. […] For that purpose the dose of buserelin administered intra-nasally, was 200 μg.
(§4) Between 12 and 48 hours after triggering ovulation, the patient's partner provided a sperm sample, after 2 to 5 days of abstinence. Motile sperm cells were separated from seminal fluid, dead sperm cells, leucocytes, and cellular debris using a suitable method such as a “swim-up” or a Percol gradient. On that same day, the motile sperm cell suspension was used to perform an intra-uterine insemination with a catheter inserted into the uterine cavity via the cervix. The procedure may be repeated on the next day.
(§5) From that day and for a period of 14 days, the patient received either no additional treatment (Patients in the hCG control group) or buserelin 100 μg every day IN, or every two days or every three days. These buserelin administrations were self-administered by the patient.

[2] = system: patients who did not conceive; test: Dose finding study: luteal phase serum oestradiol levels; format: in vivo, human
Excerpt: as §1, §2, §3, §4, §5

[3] = system: patients who did not conceive; test: Dose finding study: luteal phase serum progesterone levels; format: in vivo, human; conditions: hCG 5000 IU trigger, no luteal treatment
Excerpt: as §1, §2, §3, §4, §5

[4] = system: patients in ART treatments; conditions: hCG luteal support; CI: 1.56-4.90; p<0.05; cited from earlier work

## CCNC(=O)[C@@H]1CCCN1C(=O)[C@H](CCCNC(=N)N)NC(=O)[C@H](CC(C)C)NC(=O)[C@@H](COC(C)(C)C)NC(=O)[C@H](Cc1ccc(O)cc1)NC(=O)[C@H](CO)NC(=O)[C@H](Cc1c[nH]c2ccccc12)NC(=O)[C@H](Cc1cnc[nH]1)NC(=O)[C@@H]1CCC(=O)N1 [Buserelin, <Glu^1-His^2-Trp^3-Ser^4-Tyr^5-D-Ser(t-But)^6-Leu^7-Arg^8-Pro^9-EA (SEQ ID NO: 2)]
[1]; buserelin 200 μg IN trigger, then 100 μg/2 days IN for 14 days, n=6
  Luteal phase duration (mean ± SD): 14.8 ± 3.3 days
[1]; buserelin 200 μg IN trigger, then 100 μg/3 days IN for 14 days, n=5
  Luteal phase duration (mean ± SD): 14.8 ± 1.7 days
[2]; Day 1, buserelin 100 μg/day IN
  Luteal phase serum oestradiol level (mean ± SD): 213 ± 133 pg/mL

## hCG: human chorionic gonadotropin, a naturally occurring agonist of LH; control group, 5000 IU injection
[1]; hCG 5000 IU one injection to trigger ovulation, no additional luteal treatment (control group), n=5
  Luteal phase duration (mean ± SD): 14.8 ± 1.1 days
[1]; hCG 5000 IU trigger, no luteal treatment, patients positive/total, day 14 of luteal phase
  Positive pregnancy test: 0/5
[1]; hCG 5000 IU trigger, no luteal treatment, patients/total
  Clinical pregnancy: 0/5
[3]; Day 0
  Luteal phase serum progesterone level (mean ± SD): 0.5 ± 0.3 ng/mL
[3]; Day 1
  Luteal phase serum progesterone level (mean ± SD): 1.1 ± 0.6 ng/mL
[3]; Day 4
  Luteal phase serum progesterone level (mean ± SD): 6.0 ± 4.7 ng/mL
[3]; Day 7
  Luteal phase serum progesterone level (mean ± SD): 12.3 ± 5.4 ng/mL
[3]; Day 9
  Luteal phase serum progesterone level (mean ± SD): 13.1 ± 3.5 ng/mL
[3]; Day 11
  Luteal phase serum progesterone level (mean ± SD): 9.7 ± 2.8 ng/mL
[3]; Day 14
  Luteal phase serum progesterone level (mean ± SD): 3.3 ± 1.7 ng/mL
[2]; Day 0, hCG 5000 IU trigger, no luteal treatment
  Luteal phase serum oestradiol level (mean ± SD): 227 ± 74 pg/mL
[2]; Day 1, hCG 5000 IU trigger, no luteal treatment
  Luteal phase serum oestradiol level (mean ± SD): 189 ± 65 pg/mL
[2]; Day 4, hCG 5000 IU trigger, no luteal treatment
  Luteal phase serum oestradiol level (mean ± SD): 114 ± 35 pg/mL
[2]; Day 7, hCG 5000 IU trigger, no luteal treatment
  Luteal phase serum oestradiol level (mean ± SD): 166 ± 37 pg/mL
[2]; Day 9, hCG 5000 IU trigger, no luteal treatment
  Luteal phase serum oestradiol level (mean ± SD): 213 ± 41 pg/mL
[2]; Day 11, hCG 5000 IU trigger, no luteal treatment
  Luteal phase serum oestradiol level (mean ± SD): 190 ± 59 pg/mL
[2]; Day 14, hCG 5000 IU trigger, no luteal treatment
  Luteal phase serum oestradiol level (mean ± SD): 100 ± 52 pg/mL
[4]
  odds to obtain a pregnancy compared to no luteal support: 2.72
